{
  "source": "patent US20260060911A1",
  "about": "“ESTER OF TRIFAROTENE” (Actera Ingredients, Inc., priority 2023, published 2026)",
  "details": "1% (1 gram in 99 grams) in caprylic/capric triglyceride, heated to 75° C. for ten minutes, cooled to room temperature",
  "data": [
    {"substance": "trifarotene caprylate", "values": [
      {"measurement": "solubility / appearance of premix solution", "value": "homogeneous clear solution"}
    ]}
  ]
}
